# Laboratory results from US7034027B2, “Fused heterocyclic derivatives as phosphodiesterase inhibitors” (Lilly Icos LLC, priority 2000, dated 2006).
# Target: human recombinant PDE5 (Homo sapiens, UniProt O76074)
# Experiment: Inhibitory effect on cGMP-PDE (PDE5 IC50, one-step assay)
# Type: biochemical
# Details: read-out: PDE5 IC50, in vitro
# Procedure: The compounds of structural formula (I) were tested for an ability to inhibit PDE5. The ability of a compound to inhibit PDE5 activity is related to the IC50 value for the compound, i.e., the concentration of inhibitor required for 50% inhibition of enzyme activity. The IC50 value for compounds of structural formula (I) were determined using recombinant human PDE5.
# cGMP-PDE activity of compounds of the present invention was measured using a one-step assay adapted from Wells et al., Biochim. Biophys. Acta, 384, 430 (1975). The reaction medium contained 50 mM Tris-HCl, pH 7.5, 5 mM magnesium acetate, 250 μg/ml 5′-Nucleotidase, 1 mM EGTA, and 0.15 μM 8-[H^3]-cGMP. Unless otherwise indicated, the enzyme used was a human recombinant PDE5 (ICOS Corp., Bothell, Wash.).
# Compounds of the invention were dissolved in DMSO finally present at 2% in the assay.
row,SMILES,IC50 [nM]
1,CCCCCCCOC(=O)C[C@@H]1NC(=O)[C@H]2Cc3c([nH]c4ccccc34)[C@@H](c3ccc4c(c3)OCO4)N2C1=O,30
2,CN(C)c1ccc(CNC(=O)C[C@@H]2NC(=O)[C@H]3Cc4c([nH]c5ccccc45)[C@@H](c4ccc5c(c4)OCO5)N3C2=O)cc1,90
3,O=C1N[C@@H](Cc2cccnc2)C(=O)N2[C@H](c3ccc4c(c3)OCO4)c3[nH]c4ccccc4c3C[C@H]12,90
4,CN1CCN(C(=O)C[C@@H]2NC(=O)[C@H]3Cc4c([nH]c5ccccc45)[C@@H](c4ccc5c(c4)OCO5)N3C2=O)CC1,80
5,O=C1NC(Cn2cccn2)C(=O)N2[C@H](c3ccc4c(c3)OCO4)c3[nH]c4ccccc4c3C[C@H]12 (some centres unmarked),600
6,NCC[C@@H]1NC(=O)[C@H]2Cc3c([nH]c4ccccc34)[C@@H](c3ccc4c(c3)OCO4)N2C1=O,420
7,O=C1N[C@@H](COCc2ccccc2)C(=O)N2[C@H](c3ccc4c(c3)OCO4)c3[nH]c4ccccc4c3C[C@H]12,9.5
8,O=C(CC1NC(=O)[C@H]2Cc3c([nH]c4ccccc34)[C@@H](c3ccc4c(c3)OCO4)N2C1=O)NCCN1CCCC1 (some centres unmarked),50
9,O=C1N[C@@H](CCl)C(=O)N2[C@H](c3ccc4c(c3)OCO4)c3[nH]c4ccccc4c3C[C@H]12,10
10,NC[C@@H]1NC(=O)[C@H]2Cc3c([nH]c4ccccc34)[C@@H](c3ccc4c(c3)OCO4)N2C1=O,80

# Continued by falling IC50, values first:
row,IC50 [nM],SMILES
1,20,O=C(O)C[C@H]1NC(=O)[C@H]2Cc3c([nH]c4ccccc34)[C@@H](c3ccc4c(c3)OCO4)N2C1=O
2,10,COC(=O)C[C@@H]1NC(=O)[C@H]2Cc3c([nH]c4ccccc34)[C@@H](c3ccc4c(c3)OCO4)N2C1=O
3,9.2,O=C(O)C[C@@H]1NC(=O)[C@H]2Cc3c([nH]c4ccccc34)[C@@H](c3ccc4c(c3)OCO4)N2C1=O
4,9,O=C(C[C@@H]1NC(=O)[C@H]2Cc3c([nH]c4ccccc34)[C@@H](c3ccc4c(c3)OCO4)N2C1=O)OCC(F)(F)F
5,8.6,CCOC(=O)C[C@@H]1NC(=O)[C@H]2Cc3c([nH]c4ccccc34)[C@@H](c3ccc4c(c3)OCO4)N2C1=O
6,8.6,CC(C)(C)OC(=O)C[C@@H]1NC(=O)[C@H]2Cc3c([nH]c4ccccc34)[C@@H](c3ccc4c(c3)OCO4)N2C1=O
7,8,CCOC(=O)CC[C@@H]1NC(=O)[C@H]2Cc3c([nH]c4ccccc34)[C@@H](c3ccc4c(c3)OCO4)N2C1=O
8,7.8,CC(C)OC(=O)C[C@@H]1NC(=O)[C@H]2Cc3c([nH]c4ccccc34)[C@@H](c3ccc4c(c3)OCO4)N2C1=O
9,7,O=C(C[C@@H]1NC(=O)[C@H]2Cc3c([nH]c4ccccc34)[C@@H](c3ccc4c(c3)OCO4)N2C1=O)OC1CCCC1
10,0.03,NCCCC[C@@H]1NC(=O)[C@H]2Cc3c([nH]c4ccccc34)[C@@H](c3ccc4c(c3)OCO4)N2C1=O
